Test results as given in patent publication US20060121085A1, “Formulations for cell-schedule dependent anticancer agents” (priority 2003, published 2006).

Test system: subcutaneous SW480 (Human Colon Cancer) tumors
Assay: Example 4 Floxuridine in Atrix polymer, SCID mice bearing SW480 tumors II
Details: 100 mg/kg FUDR/Saline × 1, ip, 20 μL; listed as free Floxuridine

O=c1[nH]c(=O)n([C@H]2C[C@H](O)[C@@H](CO)O2)cc1F [FUDR, 5-fluorodeoxyuridine]
Mortality (%): all survived
